# scFv variants of Ab-14 (light chain) against a SARS-CoV-2 spike peptide

The measurements come from Li et al. 2023 (doi:10.1038/s41467-023-39022-2) through the FLAb antibody collection.

All variants were tested on one target, the spike HR2 peptide PDVDLGDISGINAS (SARS-CoV-2).

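The starting antibody came from a phage panning campaign against this peptide. These sequences belong to a second round, designed from the earlier measurements on random variants of the parent. Several design methods are mixed in this list. AlphaSeq pools MATa yeast showing the antibodies with MATalpha yeast showing the peptide. Mating (16 h, 30 °C) was followed by selection of diploids and sequencing of their barcodes. A regression on co-assayed BCL2-family reference pairs converts the normalised counts of each replicate to an apparent Kd. Each pool was mated in six replicate cultures.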

Parent: Ab-14, a human scFv built as VH, three GGGGS repeats, VL. Only the CDRs of the light chain vary.
VH: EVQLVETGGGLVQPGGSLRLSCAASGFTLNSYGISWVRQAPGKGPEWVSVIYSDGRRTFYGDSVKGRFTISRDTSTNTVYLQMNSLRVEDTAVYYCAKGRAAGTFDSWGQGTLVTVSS
VL: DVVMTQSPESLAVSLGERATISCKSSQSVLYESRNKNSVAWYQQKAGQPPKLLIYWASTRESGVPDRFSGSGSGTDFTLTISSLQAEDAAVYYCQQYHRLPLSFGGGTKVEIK

Variants are written as CDR1, CDR2 and CDR3 of the light chain (limits as in the source). Parent: KSSQSVLYESRNKNSVA, WASTRES, QQYHRLPLS. Variants here have more than six changes. The Kd shown is the geometric mean over detected replicates; a lower Kd is a better binder. Values of this round are not directly comparable with the first-round values of the same sequences. The authors averaged sequences with at least three values out of six and counted those with two or fewer as poor binders. Background: pairings of all light chain designs with three empty control strains gave a value in 4% of cases (median 430 nM, 5th percentile 38 nM). Values in that range, when seen in few replicates, are hard to tell from nonspecific mating. Of ten entries with the parent sequence, four were seen in most replicates (averages 2.2 nM to 240 nM), three in one and three in none, so single entries are noisy.

- NVGQTMDGESRNKNSVA / HQSTRED / QHYHRLPLS -> 7.2 nM (6 of 6 replicates)
- MISQIYNVGQFAINSVA / QASTRNA / QQYDRLPLM -> 22 nM (6 of 6 replicates)
- MMSMGYLQGMRAKNNVA / QEETREK / QQYHRLPLI -> 20 nM (6 of 6 replicates)
- HSSPSYYYDSRNKNHVA / DATTRES / QQYHRLPLT -> 2.3 nM (6 of 6 replicates)
- QLTMITGHMNVSKNNVA / EMETRMN / QQYDRLPLS -> 3.7 nM (5 of 6 replicates)
- KYEFSELELSRNSNSVA / NASTREE / QQYHRLPLS -> 2.0 nM (6 of 6 replicates)
- KSSQIWLGMDGNKNSVA / QASQRES / QQYHRLPLS -> 3.5 nM (6 of 6 replicates)
- SLTAHHQGAKSAENSIA / NAVMLQS / QQYHQLPLM -> 2.1 nM (6 of 6 replicates)
- KVSPSELYEDRNWNSVA / QASQRCS / QQYHRLPLS -> 1.6 nM (6 of 6 replicates)
- MISQVMNTLTRHGNNVA / DLQEREV / QQYFRLPLS -> 74 nM (6 of 6 replicates)
- KFEQLWGPEQRNKNSVA / NASLRED / QQYHRLPLS -> 2.6 nM (6 of 6 replicates)
- KISMEPLVEWNRAQAIA / DAHASYI / QQYFHLPLY -> 630 nM (2 of 6 replicates)
- KLTHLTFVLDRQKYSVA / DSERKAE / QQYNRLPLT -> 3.9 nM (6 of 6 replicates)
- TLYMGPTEARMDKHNIA / GMSEREE / QQYHLLPLV -> 26 nM (6 of 6 replicates)
- GLSQDFYNERNQANQVA / DGNQLAN / QQYARLPLV -> 3.3 nM (6 of 6 replicates)
- KLPNSKLYESRNKNQVA / SASTREM / QQYHRLPLS -> 3.6 nM (6 of 6 replicates)
- QIAMEMYHGLNDAQNVA / DAMTYEK / QQYSRLPLF -> 120 nM (2 of 6 replicates)
- KISMLYNFAQTNKNSIA / EMTTREQ / QHYHRLPLS -> 180 nM (1 of 6 replicates)
- LLSGMVEEQITRQQNIA / EGEFRDM / QQYSRLPLS -> 8.9 nM (6 of 6 replicates)
- KITATMRFEQKQKNNIA / EVTTRSK / QQYYRLPLS -> 14 nM (6 of 6 replicates)
- MVTQMAMTGMMSKRSVA / NAEMREQ / QQYHRLPLI -> 65 nM (5 of 6 replicates)
- KYQQQVLTEDRNKNSVA / NASTRES / QQYHQLPLS -> 2.3 nM (6 of 6 replicates)
- MIYGAQRELGLMANSIA / DNVTRYN / QQYNRLPLS -> 900 nM (3 of 6 replicates)
- KLSMTTEMELKNRNSVA / ELVTRCN / QQYNRLPLS -> 6.4 nM (5 of 6 replicates)
- KVSQSVLTESQNKNSVA / GASHRES / QWYHRLPNS -> 410 nM (4 of 6 replicates)
- KIGMTLNELMHQKNNVA / DLVEREN / QQYFRLPLS -> 1.3 nM (6 of 6 replicates)
- IVSQLMIWGMHLKNSIA / EAQTRVN / QQYDRLPLI -> 5.1 nM (1 of 6 replicates)
- MINMEIGIEDRKWQAVA / SATVRAF / QQYGRLPFS -> 300 nM (5 of 6 replicates)
- KIGMTLNQLMHKKNNVA / DLVERET / QQYHRLPLS -> 3.2 nM (6 of 6 replicates)
- KYSQSDGYESRNFNSVA / NASTRSH / QQYHRLPLS -> 1.8 nM (6 of 6 replicates)
- KMSQSVDGLDRNWNSVA / QASTREM / QQYHRLPLS -> 910 pM (6 of 6 replicates)
- KLMTQFGHQMDHKNSIA / HVDMLAQ / QQYMHLPLI -> 130 nM (5 of 6 replicates)
- MVTQMAMTGMKNKRSVA / NAETRES / QQYHRLPLI -> 45 nM (5 of 6 replicates)
- KLQQSQEYESRNKNSVA / HASTRLD / QQYHRLPLS -> 530 pM (6 of 6 replicates)
- TISDVMGHLTRAHNNVA / DMDTRGE / QQYNRLPLS -> 520 pM (6 of 6 replicates)
- RLLAQNLINMDKLNSIA / EQSVHYQ / QQYGRLPLT -> 29 nM (5 of 6 replicates)
- TLYGLSNSMSINKNNVA / EMSTREP / QQYDRLPLE -> 57 nM (6 of 6 replicates)
- HSNGSLRMDSRNKNHVA / DTTVRES / QQYMRLPLV -> 500 pM (6 of 6 replicates)
- ILSQSVLMGMHTKNSVA / QATMRFN / QQYHRLPFM -> 55 nM (6 of 6 replicates)
- NVGQSMDGESRNHNSVA / HQSTRED / QHYHRLPLS -> 18 nM (6 of 6 replicates)
- TLSQMTDLESVHKNSIA / DLMTRES / QQYHRLPLS -> 2.6 nM (6 of 6 replicates)
- KLQQSQLYESRNKNSVA / DASTRLV / QAYHRLPLS -> 1.1 nM (6 of 6 replicates)
- KLQQSWWYESRNKNSVA / SASQREV / QQYHRLPLS -> 5.8 nM (6 of 6 replicates)
- TLGATVGGESRNRNSVA / HNSMREN / QQYDRLPLS -> 7.3 nM (6 of 6 replicates)
- SIQNLGMVPSVWKNSIA / DVTIVED / QQYSRLPLL -> 7.5 nM (6 of 6 replicates)
- KLSQSNKYESRMKNSVA / NASQREQ / QQYHRLPLS -> 8.6 nM (6 of 6 replicates)
- KLSQSQEYESRNSNSVA / NASTRET / QQYHRLPLE -> 21 nM (6 of 6 replicates)
- IVSQLMLWGYHAKNSIA / EAQTRLN / QQYDRLPLF -> 130 nM (1 of 6 replicates)

Picked from the list: the 4 lowest averages where every replicate gave a value.

CDR-L1	CDR-L2	CDR-L3	Kd (apparent)	detected
HSNGSLRMDSRNKNHVA	DTTVRES	QQYMRLPLV	500 pM	6/6
TISDVMGHLTRAHNNVA	DMDTRGE	QQYNRLPLS	520 pM	6/6
KLQQSQEYESRNKNSVA	HASTRLD	QQYHRLPLS	530 pM	6/6
KMSQSVDGLDRNWNSVA	QASTREM	QQYHRLPLS	910 pM	6/6